{"sequences": {"note": "By UniProt entry, the sequences of proteins in these tests, tags left out.", "UniProt P10415, whole entry": "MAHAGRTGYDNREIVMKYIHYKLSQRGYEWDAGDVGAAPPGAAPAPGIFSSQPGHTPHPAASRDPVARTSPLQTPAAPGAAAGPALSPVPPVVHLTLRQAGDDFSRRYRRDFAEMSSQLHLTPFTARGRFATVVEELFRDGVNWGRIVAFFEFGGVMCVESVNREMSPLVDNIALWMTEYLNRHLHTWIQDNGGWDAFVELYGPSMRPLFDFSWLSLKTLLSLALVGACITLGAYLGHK"}, "source": "paper PMC4047118", "about": "“BM-1197: A Novel and Specific Bcl-2/Bcl-xL Inhibitor Inducing Complete and Long-Lasting Tumor Regression In Vivo” (PLoS ONE, 2014)", "key": {"Bcl-2 [1]": {"biological_target": "T1, Bcl-2 (Homo sapiens, UniProt P10415)", "conditions": "biochemical assays; read-out: Ki, recombinant Bcl-2; cited from earlier work"}, "Bcl-2 [2]": {"biological_target": "T1, Bcl-2", "test": "fluorescence-polarization (FP) binding assay, Bcl-2", "conditions": "means ± SD (n≥3)", "source_text": "BM-1197 ( Fig 1 ), was synthesized in a similar manner as described for BM-1074 [16]. We evaluated the binding affinities of BM-1197 to Bcl-2, Bcl-xL and Mcl-1 proteins using our optimized fluorescence-polarization (FP) binding assays.\nData are expressed as means ± SD (n≥3)."}}, "note": "Read-outs that look alike come from different tables or passages of the source."}
{"smiles": "CC1(C)CCC(c2ccc(Cl)cc2)=C(CN2CCN(c3ccc(C(=O)NS(=O)(=O)c4ccc(N[C@H](CCN5CCOCC5)CSc5ccccc5)c(S(=O)(=O)C(F)(F)F)c4)cc3)CC2)C1", "note": "[ABT-263, reference compound]", "values": [{"measurement": "Ki", "setting": "Bcl-2 [1]", "value": "< 1", "unit": "nM"}, {"measurement": "IC50", "setting": "Bcl-2 [2]", "value": "1.9 ± 0.3", "unit": "nM"}, {"measurement": "Ki", "setting": "Bcl-2 [2]", "value": "< 0.5", "unit": "nM"}]}
